AlphaSeq binding of Ab-14 heavy chain variants to a spike HR2 peptide

Data: MIT Lincoln Laboratory AlphaSeq set, Engelhart et al. 2022, doi:10.1038/s41597-022-01779-4, as distributed in FLAb.

Antigen: PDVDLGDISGINAS, a 14-residue peptide of the SARS-CoV-2 spike HR2 region.

Each scFv is VH, a (GGGGS)3 linker, VL, as in the parent Ab-14, and differs from it in the CDRs of the heavy chain only.
VH: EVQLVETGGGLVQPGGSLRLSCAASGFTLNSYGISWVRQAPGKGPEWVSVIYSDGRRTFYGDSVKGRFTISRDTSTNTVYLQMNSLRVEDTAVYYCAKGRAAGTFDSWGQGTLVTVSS
VL: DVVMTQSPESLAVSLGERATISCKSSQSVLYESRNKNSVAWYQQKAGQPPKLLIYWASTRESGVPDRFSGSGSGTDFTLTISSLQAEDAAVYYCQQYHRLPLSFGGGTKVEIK

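The library (AAYL49) carries one to three amino acid substitutions per variant, with no insertions or deletions. The assay is AlphaSeq: two haploid yeast populations carry antibody and antigen on their surface. After mating in shaken culture at 30 °C for 16 h, diploids were selected and their barcode pairs sequenced. Scores were corrected for input abundance and mapped to Kd with protein pairs of known affinity run in the same pool. Each pool was mated in three replicate cultures.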

Variants are written as CDR1, CDR2 and CDR3 of the heavy chain (limits as in the source). Parent: GFTLNSYGIS, VIYSDGRRTFYGDSVK, GRAAGTFDS.
Scale: log10 of Kd in nM, estimated from mating counts; low values are strong binders.
"n.d." marks a missing value. The strain was present, yet no cells mated with the target were sequenced in that replicate, which points to weak or no binding.

| # | CDR-H1 | CDR-H2 | CDR-H3 | log10 Kd, replicates | control signals |
|---|---|---|---|---|---|
| 1 | GFSLNSYGIS | VIYSDGRRTFYGTAVK | GRAAGTFDS | n.d. / n.d. / n.d. | 0/9 |
| 2 | GFTLNSYGIS | VIYSDGRTTFYHDSVK | GRAAGTFDS | 2.48 / 2.27 / 2.46 | 1/9 (4.29) |
| 3 | GFTLNSYGIS | VIYSDGRAGFYGDSVK | GRAAGTRDS | 5.65 / n.d. / n.d. | 1/9 (4.81) |
| 4 | GFTLNEYGIS | VIYSDGRRVFYLDSVK | GRAAGTFDS | -0.11 / 0.24 / 0.13 | 1/9 (4.05) |
| 5 | GFTLNIYGIS | VIYSDGRRTFYGDSVT | SRAAGTFDS | n.d. / n.d. / 4.32 | 0/9 |
| 6 | GFTLNHYGIS | VIYSDGRRTFYGRSVK | GRAAGTFDD | n.d. / n.d. / n.d. | 0/9 |
| 7 | GFTLNSYGIS | VIYSDGRRTFYGDSVK | GRAAGHFPF | n.d. / n.d. / n.d. | 0/9 |
| 8 | GFTLNSYGIS | VIYSDGRWTFPGDSVK | GNAAGTFDS | n.d. / 3.40 / n.d. | 1/9 (4.35) |
| 9 | GFTLNYYGIS | VDYSDRRRTFYGDSVK | GRAAGTFDS | n.d. / n.d. / 5.17 | 1/9 (4.12) |
| 10 | GFDLNSYGIS | VIYSDGRDTFYGDSVK | GIAAGTFDS | n.d. / 4.53 / n.d. | 3/9 (4.14) |
| 11 | GTTLNSYGAS | VIYSDGRRTFYGDSVK | ERAAGTFDS | n.d. / 3.43 / n.d. | 3/9 (4.44) |
| 12 | GFTLNSYGIS | HIYSDGRRTFYGDSMK | GRAATTFDS | n.d. / n.d. / n.d. | 0/9 |
| 13 | GFTLNSYGIS | VIYSDGRRTFHGDSVA | GRAAGTFDH | n.d. / 4.35 / n.d. | 5/9 (4.05) |
| 14 | RFTLNSYGFS | VIYSDGRRTFYGDSVQ | GRAAGTFDS | 2.02 / 1.89 / 1.91 | 4/9 (4.80) |
| 15 | GFTGNSYCIS | VIYSDGRPTFYGDSVK | GRAAGTFDS | n.d. / 3.34 / n.d. | 1/9 (3.22) |
| 16 | GFTLNSYGKS | VIYSDGRGTFYTDSVK | GRAAGTFDS | n.d. / n.d. / n.d. | 0/9 |
| 17 | GSTLNSYGSS | VITSDGRRTFYGDSVK | GRAAGTFDS | 2.97 / n.d. / n.d. | 0/9 |
| 18 | GFELNSKGIS | VIYSDGRRTFYTDSVK | GRAAGTFDS | 3.99 / 4.80 / 4.35 | 4/9 (4.16) |
| 19 | GFTLNSYGIS | DDYSDFRRTFYGDSVK | GRAAGTFDS | n.d. / n.d. / n.d. | 0/9 |
| 20 | GFTLNSYGIS | VINSDPRRTFYGDSVK | GRAAGTFDH | n.d. / n.d. / 5.36 | 2/9 (3.73) |
| 21 | SFTLNSYGIS | VIESDARRTFYGDSVK | GRAAGTFDS | 4.16 / 4.68 / 3.68 | 2/9 (4.70) |
| 22 | GFTLNSYGIS | VIVSDGRRTFYGDSVK | ERAAGTFDS | 4.61 / 4.86 / 4.11 | 4/9 (3.95) |
| 23 | GFTLTSYGIS | VIYSDGCRTFYGDSVK | GRAAGTFDS | 2.73 / 2.66 / 4.51 | 3/9 (3.92) |
| 24 | GFTLNAYFIS | VIYSDGRRTFYGDSVK | GRAAGTFDF | n.d. / 5.28 / 4.36 | 4/9 (4.04) |
| 25 | GFTLNSYGIS | VIYSDGKRTFYGDSVK | GRAALTCDS | 1.13 / 1.23 / 1.28 | 1/9 (3.72) |
| 26 | WFTLNSYGIS | VWYSDDRRTFYGDSVK | GRAAGTFDS | n.d. / 4.80 / 5.42 | 3/9 (4.40) |
| 27 | GFTLNSYGIS | VEYSDGRRTFYGDSDK | GRAAGTFNS | n.d. / n.d. / 3.85 | 2/9 (4.40) |
| 28 | QFTLNSYGIS | VIYADGRYTFYGDSVK | GRAAGTFDS | n.d. / 2.44 / 3.41 | 0/9 |
| 29 | YFTLNSYGIS | VIYSDGRRTFYSDSVK | GRAACTFDS | 5.26 / n.d. / n.d. | 2/9 (4.54) |
| 30 | GMTLNSYGIS | VIYSDGRRAFYGDSVK | GRAAGTFDS | n.d. / n.d. / n.d. | 0/9 |
| 31 | GFTLNSYGIS | VIYSDGRRTFYRDSVK | GRAANTFDW | n.d. / n.d. / 4.36 | 1/9 (3.43) |
| 32 | AFTLNSYGIS | VIYSDGRRTFYGDRVK | TRAAGTFDS | n.d. / n.d. / n.d. | 2/9 (4.61) |
| 33 | GFTLNSYGIS | TIYSDGKRTFHGDSVK | GRAAGTFDS | n.d. / n.d. / 4.28 | 3/9 (4.26) |
| 34 | GFTRNSYGIS | VIYSDGRRDFYGDSVF | GRAAGTFDS | n.d. / n.d. / n.d. | 1/9 (4.00) |
| 35 | GFTLNSYGIS | VIYSDGRRTHYGHSVK | GRAAGTFDI | n.d. / n.d. / n.d. | 0/9 |

Picked from the list: the 2 lowest averages where every replicate gave a value.

| CDR-H1 | CDR-H2 | CDR-H3 | log10 Kd, replicates | control signals |
|---|---|---|---|---|
| GFTLNEYGIS | VIYSDGRRVFYLDSVK | GRAAGTFDS | -0.11 / 0.24 / 0.13 | 1/9 (4.05) |
| GFTLNSYGIS | VIYSDGKRTFYGDSVK | GRAALTCDS | 1.13 / 1.23 / 1.28 | 1/9 (3.72) |

For reference, the parent read 0.65 as the reference entry and 4.11 (one replicate of three) as a member of this library.
As a blank, each scFv also met three strains without target: over library AAYL49, 15% of these pairings were detected, typically at 4.06 and seldom below 2.83. The control count says in how many pairings with the empty strains this scFv gave a signal, with their mean in brackets.